Data published in US9630961B2, “Arginine methyltransferase inhibitors and uses thereof” (Epizyme, Inc., priority 2013, dated 2017).

By UniProt entry, the sequences of proteins in these tests, tags left out. Chains listed by the source or under a name are the forms on record and can include a tag or linker. Residues count along the entry.
UniProt Q96LA8, 2-375 with tags or gaps: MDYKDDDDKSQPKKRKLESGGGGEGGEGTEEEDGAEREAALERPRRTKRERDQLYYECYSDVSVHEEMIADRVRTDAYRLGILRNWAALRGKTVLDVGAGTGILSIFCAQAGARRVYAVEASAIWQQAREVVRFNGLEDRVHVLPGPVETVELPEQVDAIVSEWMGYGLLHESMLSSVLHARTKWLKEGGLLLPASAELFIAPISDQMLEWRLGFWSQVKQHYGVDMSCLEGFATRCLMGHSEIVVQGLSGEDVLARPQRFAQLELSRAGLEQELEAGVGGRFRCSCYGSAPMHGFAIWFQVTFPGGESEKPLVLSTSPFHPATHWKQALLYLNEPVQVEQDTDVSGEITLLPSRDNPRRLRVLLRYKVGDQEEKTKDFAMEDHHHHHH

Biological target: PRMT6 (Homo sapiens, UniProt Q96LA8)
Assay: PRMT6 Biochemical Assay (3H-SAM Flashplate, peptide substrate)
Conditions: read-out: Biochemical IC50 PRMT6; 30 min preincubation, room temperature
Excerpt: S-adenosylmethionine (SAM), S-adenosylhomocysteine (SAH), bicine, Tween20, dimethylsulfoxide (DMSO), bovine skin gelatin (BSG), sodium butyrate and Tris(2-carboxyethyl)phosphine hydrochloride solution (TCEP) were purchased from Sigma-Aldrich at the highest level of purity possible. ^3H-SAM was purchase from American Radiolabeled Chemicals with a specific activity of 80 Ci/mmol. 384-well streptavidin Flashplates were purchased from PerkinElmer.
Peptide representative of human histone H4 residues 36-50 was synthesized with an N-terminal linker-affinity tag motif and a C-terminal amide cap by 21st Century Biochemicals. The peptide was purified by high-performance liquid chromatography (HPLC) to greater than 95% purity and confirmed by liquid chromatography mass spectrometry (LC-MS). The sequence was Biot-Ahx-RLARRGGVKRISGLI-amide and contained a monomethylated lysine at position 44 (SEQ ID NO.:5).
Full-length human PRMT6 (NM_018137.2) transcript clone was amplified from an HEK 293 cDNA library, incorporating a flanking 5′ sequence encoding a FLAG tag (MDYKDDDDK) (SEQ ID NO.:6) fused directly to Ser 2 of PRMT6 and a 3′ sequence encoding a hexa His sequence (HHHHHH) fused directly to Asp 375. The amplified gene was subcloned into pFastBacMam (Viva Biotech).
Recombinant baculovirus were generated according to Bac-to-Bac kit instructions (Life Technologies). […]

Row | Structure (SMILES) | IC50
1 | CNCCN(C)Cc1c[nH]nc1-c1csc2ccccc12 | < 100 nM
2 | CNCCN(C)Cc1c[nH]nc1-c1cncnc1 | 1010 to 3000 nM
